# Assay results reported in US20200165308A1.
# pKd: −log10 of the molar value.
# Molecular target: full-length ectodomain of DCC (UniProt P70211)
# Test: solid-phase binding assay
# Details: ligand
substance,measurement,value
"Netrin-1 (NET1) from Mus musculus lacking the C-terminal domain (NP_032770, aa: 24-457) (from UniProt O09118 24-457)",pKd,8.42
